In patent US6617425B1, “Peptides” (Novartis AG, priority 1996, dated 2003):
Where a name gives a salt, the structure may show the parent alone.

Chains of the proteins cited; added tags and fusions are not shown. Residues count along the entry.
UniProt P0DJD8, 63-388: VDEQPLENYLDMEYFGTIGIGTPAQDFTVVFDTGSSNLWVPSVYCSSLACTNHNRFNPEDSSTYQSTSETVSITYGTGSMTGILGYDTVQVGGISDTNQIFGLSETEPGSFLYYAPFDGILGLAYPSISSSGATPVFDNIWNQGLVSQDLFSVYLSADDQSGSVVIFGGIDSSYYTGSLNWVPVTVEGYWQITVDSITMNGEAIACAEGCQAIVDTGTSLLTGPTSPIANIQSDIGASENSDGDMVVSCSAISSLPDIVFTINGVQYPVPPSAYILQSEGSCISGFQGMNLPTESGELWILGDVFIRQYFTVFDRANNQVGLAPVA

Biological target: pepsin (Homo sapiens, UniProt P0DJD8)
Test: stability to enzymatic cleavage as a substrate for pepsin
Conditions: same conditions for β-peptides and α-peptide comparator

CC(C)C[C@H](CNC(=O)[C@H](C)CNC(=O)[C@@H](CNC(=O)[C@@H](CNC(=O)[C@H](C)CNC(=O)[C@@H](CN)C(C)C)CC(C)C)C(C)C)C(=O)O [(R)-Aminomethylvalyl-(R)-aminomethylalanyl-(R)-aminomethylleucyl-(R)-aminomethylvalyl-(R)-aminomethylalanyl-(R)-aminomethylleucinate Trifluoroacetate]
stability as a substrate for pepsin: fully stable for several days
